# Where a name gives a salt, the structure may show the parent alone.
# Test: Solubility comparison in water, SGF, FaSSIF, FeSSIF (HPLC, pH, XRPD of filter cakes)
# Format: physicochemical
# Settings: for Solubility −0.5 h: 30 min
# Procedure: 7. Preparation of Biological Media
# Two samples were prepared in parallel for each medium. All samples were shaken at 200 rpm at 37° C. for 24 h. At 0.5 h, 2 h, and 24 h, appropriate amounts of the suspensions were taken and filtered. The obtained filtrates were analyzed by HPLC and their pH values were measured, and the filter cakes were analyzed by XRPD.
SMILES,"Solubility −0.5 h (FaSSIF, 37° C., 5 mg/mL sample)","Solubility −0.5 h (FeSSIF, 37° C., 5 mg/mL sample)","Solubility −0.5 h (Water, 37° C., 5 mg/mL sample)","XRPD-24 h (FeSSIF, filter cake, 24 h)","Solubility 24 h (SGF, 37° C., 24 h, 5 mg/mL sample)"
CC(=O)c1c(C)c2cnc(Nc3ccc4c(c3)OC[C@@H]3CN(C5CCN(C)CC5)CCN43)nc2n(C2CCCC2)c1=O,240 µg/mL,1630 µg/mL,3320 µg/mL,,
CC(=O)c1c(C)c2cnc(Nc3ccc4c(c3)OC[C@@H]3CN(C5CCN(C)CC5)CCN43)nc2n(C2CCCC2)c1=O [crystalline form B of hydrochloride monohydrate of compound ],,,,Unchanged,>5000 µg/mL
